US12257294B2, “Therapeutics for autoimmune disease: synthetic antigens” (DANMARKS TEKNISKE UNIVERSITET, priority 2018, dated 2025)

Tested on: NZB/W mice
Test: Toxicity study in vivo in NZB/W mice (IL-19, KIM-1 ELISA)
Conditions: IV, 10 nM; blood sample 36 h after initial administration
Procedure: Nine-week-old NZB/W mice were kindly provided by Heegaard group, Statens Serum Institute, Denmark; ten mice (all females) were kept in sterile boxes covered by a filter and fed sterile water and food. The mice were grown for 10 weeks and reached weight 17-19 g in average. The mice were bled before the experiment to check for the presence of anti-dsDNA antibodies (a-dsDNA) by standard ELISA. Only those with a-dsDNA in titer 1:1000-1:12000 were used for this study. The nanoconjugate complexes were added to the tail vein. Nanoconjugate complex was administrated using IV in 1×PBS, applying the nanoconjugate complex at 160 μg/kg animal weight for 10 nM concentration. Blood samples were withdrawn 36 hours after initial administration and subjected to analysis of IL-19 and KIM-1 using commercial ELISA kits (The Quantikine human IL 19 kit, R&D Products, USA; KIM 1 ELISA kit ADI-900-226-0001, ENZO Life Sciences, USA), following manufacturers protocols.

## Gentamicin
  NZB/W: IL-19 (plasma): 78 pg/mL
  NZB/W: KIM-1 (plasma): 2.05 ng/mL
